# Binding of CDR-mutated scFvs to a peptide of the spike HR2 region

Reference: Li et al. 2023, doi:10.1038/s41467-023-39022-2. File: FLAb, binding data.

Target: peptide PDVDLGDISGINAS, taken from heptad repeat 2 (HR2) of SARS-CoV-2 spike.

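Designed CDR sequences, proposed from the first random library and measured here. Group labels follow the data file (Ctrl: baseline library sampled from a position-specific scoring matrix, with some repeated check sequences; GP: Gaussian process model; HC: hill climbing; Gen: genetic algorithm; Gibbs: Gibbs sampling; a sequence that several methods proposed may carry one label only). In AlphaSeq, yeast of one mating type display the scFv and yeast of the other type display the target. Pairs that bind mate more often; barcode pairs of the diploids are counted by sequencing. The ratio of observed to expected reads was calibrated, replicate by replicate, on BCL2-family standards whose Kd was known from biolayer interferometry. Mating was done six times.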

Each scFv is VH, a (GGGGS)3 linker, VL, as in the parent Ab-14, and differs from it in the CDRs of the light chain only.
VH: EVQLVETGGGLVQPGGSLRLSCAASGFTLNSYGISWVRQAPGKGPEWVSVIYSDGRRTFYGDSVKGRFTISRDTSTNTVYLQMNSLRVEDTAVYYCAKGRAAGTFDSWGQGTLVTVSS
VL: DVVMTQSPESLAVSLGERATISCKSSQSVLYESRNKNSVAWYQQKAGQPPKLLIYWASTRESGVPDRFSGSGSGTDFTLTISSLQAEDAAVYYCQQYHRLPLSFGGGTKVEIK

Substitutions are numbered in sequence along the VL above, starting at 1 (not Kabat). Variants here have at most six changes. Scale: log10 of Kd in nM, estimated from mating counts; low values are strong binders. Replicates are averaged; those with no signal do not enter the mean. An entry "no signal" has no value in the source: the pair was not observed among the diploids in any replicate. This suggests poor binding but is not conclusive.

The variant L30E+R34L+W56R+T59I [Ctrl] showed 1.01 (6 of 6 replicates).
The variant Q27Y+L30A+S62E+L100F [Ctrl] showed 2.27 (5 of 6 replicates).
The variant Q27C [Ctrl] showed 2.59 (3 of 6 replicates).
The variant S25V+S26Y+L30P+W56E [GP_Gen] showed -0.02 (6 of 6 replicates).
The variant S25L+Q27P+Y31G+E32M+S33W+W56N [GP_Gibbs] showed -0.03 (6 of 6 replicates).
The variant S25L+S26E+W56N+Q96D [GP_Gen] showed -0.18 (6 of 6 replicates).
The variant S25V+S26R+V29T+W56D [GP_HC] showed -0.23 (6 of 6 replicates).
The variant R34G [Ctrl] showed 1.92 (6 of 6 replicates).
The variant S25A+Y31F+W56D+T59F [GP_HC] showed 0.13 (6 of 6 replicates).
The variant S25A+Y97M [Ctrl] showed 1.19 (4 of 6 replicates).
The variant S26N+Y31G+S33E+W56N [Ctrl] showed 0.46 (6 of 6 replicates).
The variant V29A+K36Y [Ctrl] showed 2.03 (4 of 6 replicates).
The variant S25L+S26D+V29K+W56G [GP_HC] showed -0.23 (6 of 6 replicates).
The variant S25F+W56N+S58Q+E61L+S62E [GP_Gibbs] showed -0.10 (6 of 6 replicates).
The variant S25L+E32Q+W56N+E61M [GP_Gen] showed -0.07 (6 of 6 replicates).
The variant S26Q+S38N+W56Q+S62D+H98A [GP_HC] showed -0.32 (6 of 6 replicates).
The variant K24M+S25A+Q27D+V29T+R34P+S62R [Ctrl] showed 1.70 (6 of 6 replicates).
The variant E61G [Ctrl] showed no signal (0 of 6 replicates).
The variant S25L+S33D+W56N+T59Q+S62Q [GP_Gen] showed -0.25 (6 of 6 replicates).
The variant V29F+K36V+S38N+W56G [GP_HC] showed -0.65 (6 of 6 replicates).
The variant S25V+S26V+L30D+N37Q+W56D+E61C [GP_Gibbs] showed -0.19 (6 of 6 replicates).
The variant S25L+S26M+V29W+W56H+T59L+S62D [GP_HC] showed 0.43 (6 of 6 replicates).
The variant S25E+Y31F+W56D [GP_HC] showed -0.09 (6 of 6 replicates).
The variant S25V+S26Q+V29W+W56N+E61C [GP_Gen] showed -0.14 (6 of 6 replicates).
The variant S25L+S26A+Q27Y+L30P+W56D+E61S [GP_Gibbs] showed 0.05 (6 of 6 replicates).
The variant S25N+S28G+N35E+E61H+Q96F+P101I [Ctrl] showed no signal (0 of 6 replicates).
The variant S25L+Q27L+Y31P+W56N [GP_HC] showed 0.06 (6 of 6 replicates).
The variant V29Y+L30H+W56G+S62Q [GP_HC] showed 0.11 (6 of 6 replicates).
The variant K36L+E61V [Ctrl] showed 1.38 (6 of 6 replicates).
The variant S25L+S26P+V29Q+W56N+Q96D [GP_Gen] showed -0.09 (6 of 6 replicates).
The variant S25L+W56D+L102I [GP_HC] showed -0.03 (6 of 6 replicates).
The variant S25V+V29T+S33D+R34G+W56N+T59V [GP_Gibbs] showed 0.90 (6 of 6 replicates).
The variant S28L+L30K+Y31F+W56D [GP_HC] showed 0.90 (6 of 6 replicates).

The parent sequence was in this pool as ten entries: three were never detected, three once, and four in most replicates, with averages from 0.34 to 2.37. Values of this round are not directly comparable with the first-round values of the same sequences. The authors' rule: three or more of the six replicates give a measured affinity, fewer mean a poor binder. As a blank, each scFv also met three strains without target: over all light chain designs, 4% of these pairings were detected, typically at 2.64 and seldom below 1.59.